Measurements from patent publication US20050187288A1, “Beta-lapachone and methods of treating cancer” (priority 2004, published 2005).

Key:
[1] = Study 6B: two week intravenous repetitive dose toxicity study in rats; details: 45 mg/kg up to twice daily for 14 days
[2] = Study 2A: repetitive weekly intravenous toxicity study in dogs; details: 5, 15, 35 mg/kg weekly x 4
[3] = Study 1A: repetitive weekly intravenous toxicity study in rats
[4] = Study 5B: four week intravenous toxicity study in rats; details: 45 mg/kg dose group
[5] = Study 1B: dose-range-finding single dose intravenous toxicity study in rats; details: 60 mg/kg dose group

Q: Which overall outcome [1] does the source give for CC1(C)CCC2=C(O1)c1ccccc1C(=O)C2=O [β-lapachone, 3,4-dihydro-2,2-dimethyl-2H-naphtho [1,2-b]pyran-5,6-dione] here?
A: clinical signs of toxicity including lower body weight gains and food consumption

Q: And the mortality [2]?
A: no early deaths

Q: What about the histopathological findings ([3]; high dose animals) of the same compound?
A: hemosiderosis and extramedullary hematopoiesis in liver and spleen

Q: What about the “CK and AST” value ([3]; high dose animals, Day 2 after first dose, normal on Day 23) of the same compound?
A: Slight increases

Q: And the “mortality and clinical signs” value ([3]; low- (10 mg/kg) and mid-dose (25 mg/kg) toxicology groups)?
A: no mortality or clinical signs of toxicity

Q: What about the mortality [4] of the same compound?
A: no mortality

Q: And the mortality [5]?
A: no mortality
